Assay results: ChEMBL document CHEMBL1140002, “Synthesis and biological evaluation of (R)-N-(diarylmethylthio/sulfinyl)ethyl/propyl-piperidine-3-carboxylic acid hydrochlorides as novel GABA uptake inhibitors” (Bioorg Med Chem Lett, 2007)

Target: Sodium- and chloride-dependent GABA transporter 1 (Mus musculus, UniProt P31648)
Assay: Inhibition of [3H]GABA uptake at mouse GAT1 expressed in D8 cells
Type: cell-based
Procedure, shortened: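 D8 cells in RPMI1640 with 10% FBS grown to near confluence (~60,000 cells/well), rinsed with PBS, pre-incubated 10 min at rt in HBSS. [3H]-GABA added to 151 nM final, incubated 20 min at rt. Stopped by aspirating HBSS, three rapid cold PBS washes, cells solubilized in 2 N NaOH; uptake quantified by liquid scintillation counting.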

O=C(O)[C@@H]1CCCNC1 [(R)-NIPECOTIC ACID]
IC50: 456 µM
